Measured values as given in patent publication US6617340B1, “N-(substituted glycyl)-pyrrolidines, pharmaceutical compositions containing them and their use in inhibiting dipeptidyl peptidase-IV” (Novartis AG, priority 1999, dated 2003).

By UniProt entry, the sequences of proteins in these tests, tags left out. Residues count along the entry.
UniProt P14740, 37-767 limits assumed: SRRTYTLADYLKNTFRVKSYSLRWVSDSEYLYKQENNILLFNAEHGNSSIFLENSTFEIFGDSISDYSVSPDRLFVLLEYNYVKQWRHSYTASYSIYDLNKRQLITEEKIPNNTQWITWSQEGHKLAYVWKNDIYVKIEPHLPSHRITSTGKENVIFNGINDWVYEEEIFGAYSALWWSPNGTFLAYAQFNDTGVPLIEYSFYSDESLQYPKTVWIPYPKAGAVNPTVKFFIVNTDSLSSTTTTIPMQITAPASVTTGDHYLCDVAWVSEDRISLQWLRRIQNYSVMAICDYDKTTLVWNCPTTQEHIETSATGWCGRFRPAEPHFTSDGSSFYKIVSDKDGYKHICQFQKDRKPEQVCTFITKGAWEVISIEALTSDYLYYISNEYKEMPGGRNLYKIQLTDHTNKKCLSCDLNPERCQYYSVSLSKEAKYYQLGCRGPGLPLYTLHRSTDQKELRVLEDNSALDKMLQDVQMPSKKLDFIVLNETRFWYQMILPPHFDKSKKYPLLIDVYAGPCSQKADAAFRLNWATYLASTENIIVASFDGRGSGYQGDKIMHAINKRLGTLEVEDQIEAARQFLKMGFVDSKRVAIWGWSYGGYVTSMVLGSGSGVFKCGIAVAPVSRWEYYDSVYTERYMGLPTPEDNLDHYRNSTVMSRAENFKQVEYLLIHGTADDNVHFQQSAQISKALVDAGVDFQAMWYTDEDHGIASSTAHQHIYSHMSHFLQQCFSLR

Biological target: T1, DPP-IV activity in rat plasma (Rattus norvegicus, UniProt P14740)
T1 construct: from tissue; host or cells: rat plasma
Assay: rat plasma DPP-IV assay
Assay type: biochemical
Details: substrate H-Glycine-Proline-AMC

IC50: 5.2 µM
SMILES: O=C(CNCCNc1ccc([N+](=O)[O-])cn1)N1CCCC1 [Ex. 3, 1-[2-[(5-nitropyridin-2-yl)amino]ethylamino]acetylpyrrolidine dihydrochloride]

Where a name gives a salt, the structure may show the parent alone.
